US9234178B2, “Differentiation of human pluripotent stem cells” (Janssen Biotech, Inc., priority 2008, dated 2016)
Like-named read-outs stand apart in the source and are kept apart here.

Tested on: cells expressing markers characteristic of the pancreatic endocrine lineage
Assay: Screening of BIOMOL Kinase Inhibitor Library, real-time PCR (Example 7)
Conditions: Homo sapiens, 144 h

N#CC(=C(/N)Sc1ccccc1N)/C(C#N)=C(\N)Sc1ccccc1N [Well B2, U-0126]
fold induction at 4 µM (read-out: Ratio vs. Control: Insulin to Glucagon): 2.4
fold induction at 4 µM (read-out: Ratio vs. Control: MAFA to Arx4): 1.3
